Measured affinities in a library of Ab-91 heavy chain variants

Target: peptide PDVDLGDISGINAS, taken from heptad repeat 2 (HR2) of SARS-CoV-2 spike.

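The starting antibody came from a phage panning campaign against this peptide. AAYL51 was designed without a model: most single CDR substitutions and a random sample of double and triple ones. The scFvs were displayed on barcoded MATa yeast, the peptide on MATalpha yeast. After mating in shaken culture at 30 °C for 16 h, diploids were selected and their barcode pairs sequenced. Read counts were normalised to the haploid input and turned into Kd by a linear fit to BCL2-family pairs of known affinity, for each replicate. Each pool was mated in three replicate cultures.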

The variants keep the light chain, the linker and the frameworks of Ab-91 (scFv order VL, three GGGGS repeats, VH).
VL: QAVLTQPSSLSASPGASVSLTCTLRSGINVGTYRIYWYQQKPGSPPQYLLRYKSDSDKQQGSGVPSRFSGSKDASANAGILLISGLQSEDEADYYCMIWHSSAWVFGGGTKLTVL
VH: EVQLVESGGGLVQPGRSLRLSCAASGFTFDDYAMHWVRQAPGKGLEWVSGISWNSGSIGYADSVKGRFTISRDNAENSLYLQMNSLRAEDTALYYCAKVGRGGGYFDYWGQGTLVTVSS

Each variant is given by its three heavy chain CDRs, as the data file delimits them; those of the parent are GFTFDDYAMH, GISWNSGSIGYADSVK, VGRGGGYFDY. Every variant below is changed at T28 of the VH (sequential numbering). The Kd shown is the geometric mean over detected replicates; a lower Kd is a better binder. An entry "nd" has no value in the source: the pair was not observed among the diploids in any replicate. This suggests poor binding but is not conclusive. Background: pairings of library AAYL51 with three empty control strains gave a value in 21% of cases (median 34 µM, 5th percentile 1.8 µM). Values in that range, when seen in few replicates, are hard to tell from nonspecific mating.

With GFRFTDYAMH / GISWNSGSIGYADSVK / VGCGGGYFDY the result was 3.4 µM (2 of 3 replicates). With GFNFDDYAMF / GISWNSGSIGYADSVK / VGRGGGYFDY the result was nd (0 of 3 replicates). For GFQFDDYAMH / GISWNSGSIGYADSVK / VGRGGGYFDY, the assay gave 19 nM (3 of 3 replicates). Variant GFYFDDYAMH / GISWNSGSIGYADSVK / VGRGRGPFDY showed 220 nM (3 of 3 replicates). Variant GFDFDDYAMH / GISWNSGSIGYACSVK / VGRGGGYFDY gave nd (0 of 3 replicates).

For GFNFDDYAMH / GISWNSGSIGYAQSVK / VGRGGWYFDY, the assay gave 300 nM (3 of 3 replicates). Variant GFHFDDYAMQ / GISWNSGFIGYADSVK / VGRGGGYFDY showed 360 µM (2 of 3 replicates). With GFGFDDYAMH / GISWNSGSIGYADSVK / VGPGCGYFDY the result was 1.3 mM (1 of 3 replicates). For GFVFDDPAMH / GISWNSGSIGCADSVK / VGRGGGYFDY, the assay gave nd (0 of 3 replicates). Variant GFDFDDYAMH / GISWNSGSIGEADSVK / VFRGGGYFDY gave 540 nM (3 of 3 replicates).

Variant MFAFDDYAMH / GISWNSGSIGYADSVK / VGRGGGYFDY gave nd (0 of 3 replicates). For GFRFDDYAMH / GLSWNSGSIGMADSVK / VGRGGGYFDY, the assay gave 4.6 µM (2 of 3 replicates). For GFEFDDPAMH / GISWNSGSIGYADSVK / VGNGGGYFDY, the assay gave 18 µM (2 of 3 replicates). With GFRFDDYAME / GIVWNSGSIGYADSVK / VGRGGGYFDY the result was 200 µM (1 of 3 replicates). Variant GFIEDDYAMH / SISWNSGSIGYADSVK / VGRGGGYFDY showed 650 µM (2 of 3 replicates).

With GFQFDMYAMH / GISWNSGSIGYADSVK / VGRGGHYFDY the result was 87 µM (3 of 3 replicates). Variant GFKFDDYAMH / GISNNSYSIGYADSVK / VGRGGGYFDY showed 4.4 µM (3 of 3 replicates). For GFEFDDYAMH / GISWNSGSIGYADSVK / VGCGGGYCDY, the assay gave nd (0 of 3 replicates). Variant GFSFDDYAMH / GISWNPGSFGYADSVK / VGRGGGYFDY showed 1.8 µM (1 of 3 replicates). Variant GFFFDDYAMH / GILWNSGSIGYADSVK / VGRGGGYMDY showed 7.5 µM (1 of 3 replicates).

With GFGFDDYAMH / GISWNSGSIGFADSVK / VGRGQGYFDY the result was nd (0 of 3 replicates). With GFGFDDYAMH / GISWLSGSIGDADSVK / VGRGGGYFDY the result was 120 µM (2 of 3 replicates). For CFSFDDYAMH / GISWNSGSIGYADSVK / WGRGGGYFDY, the assay gave nd (0 of 3 replicates). Variant GFMFDDYAMH / GHSWNSGSGGYADSVK / VGRGGGYFDY gave 42 µM (1 of 3 replicates). For HFMFDDYAMH / GISWNSGSIGYADSVW / VGRGGGYFDY, the assay gave nd (0 of 3 replicates).

Variant GFVFDDYAMH / GISWNSGSIGYAHSVK / VGIGGGYFDY gave nd (0 of 3 replicates). For GFWFDDYAMA / GISWNSGSIQYADSVK / VGRGGGYFDY, the assay gave 4.2 µM (1 of 3 replicates). With GFNFDDYAMH / GISWNSGSIGYAIWVK / VGRGGGYFDY the result was 260 nM (3 of 3 replicates). Variant GFGFDDYAMH / GISWNSGPIGYADSVK / VGRGGGDFDY gave nd (0 of 3 replicates). Variant GFLFDDYAMH / GISWNDGSIGYADSVK / VGRGGGQFDY gave 22 µM (1 of 3 replicates).

Variant GFIFDTYAMH / GISWNSGSIGYADFVK / VGRGGGYFDY gave 280 nM (3 of 3 replicates). Variant GFFDDDYAGH / GISWNSGSIGYADSVK / VGRGGGYFDY gave 4.0 µM (1 of 3 replicates). Variant GFEFDDYAMH / GIGWNSGSIGYADSVK / QGRGGGYFDY gave 35 nM (3 of 3 replicates). Variant GFSFDDYAMV / GISWNSGSIGYADSVM / VGRGGGYFDY gave 2.8 µM (1 of 3 replicates). For GFYFDDYAMH / GISWNSGSIGYADSVM / VGRGGGYFDY, the assay gave nd (0 of 3 replicates).

For GFGFDDYAMH / GISWNSGSIHYADSVG / VGRGGGYFDY, the assay gave nd (0 of 3 replicates). Variant GFFFDDYAMH / GISWGSGSIGYADSVK / VGRGGGYFTY showed nd (0 of 3 replicates). For GFMFDDYAMH / GISWNSGSIGYYISVK / VGRGGGYFDY, the assay gave nd (0 of 3 replicates). Variant GFLFDFYAMH / GISWNSGSIGYADSVK / VGRGGGYPDY showed 62 nM (3 of 3 replicates). Variant GFHFDDYAMH / GISWNSGSIGYADSVK / VIRGGGTFDY showed 2.3 µM (1 of 3 replicates).

With GSMFDDYAMH / GISWHSGSIGYADSVK / VGRGGGYFDY the result was 31 µM (3 of 3 replicates). For GFEFDDYAMH / GISWNSTSINYADSVK / VGRGGGYFDY, the assay gave nd (0 of 3 replicates). Variant GFHFRDYAMH / GISWNSGAIGYADSVK / VGRGGGYFDY showed 7.6 nM (3 of 3 replicates). For GFHFNDYAMH / GISWNSGSIGYEDSVK / VGRGGGYFDY, the assay gave 5.6 µM (1 of 3 replicates). With GFYQDDYAMH / GISWNSGSIGYAPSVK / VGRGGGYFDY the result was 330 µM (2 of 3 replicates).

Variant GFPFDDYAMH / GISWNSGSIGYADSVK / VTRGGGYFDY gave nd (0 of 3 replicates). Variant GFFFDDYAMH / GISQNSGSIGYADSVK / VGRGGGYFDP gave 20 µM (1 of 3 replicates). Variant GFPFDDYAMH / GISWNSGSIGYPDSVK / VGRDGGYFDY gave 61 µM (2 of 3 replicates). For GFDMDDYAMP / GISWNSGSIGYADSVK / VGRGGGYFDY, the assay gave 940 nM (3 of 3 replicates). Variant GFMFDDYAMH / GISWNSGSIGYDDSVK / VGRGGGYRDY showed 44 nM (3 of 3 replicates).

Variant GFCFDDYAMH / GISWNSGSIGYKDNVK / VGRGGGYFDY gave 580 nM (3 of 3 replicates).

The first 7 variants above that were never detected:

CDR-H1	CDR-H2	CDR-H3	apparent Kd	seen in
GFNFDDYAMF	GISWNSGSIGYADSVK	VGRGGGYFDY	nd	0 of 3
GFDFDDYAMH	GISWNSGSIGYACSVK	VGRGGGYFDY	nd	0 of 3
GFVFDDPAMH	GISWNSGSIGCADSVK	VGRGGGYFDY	nd	0 of 3
MFAFDDYAMH	GISWNSGSIGYADSVK	VGRGGGYFDY	nd	0 of 3
GFEFDDYAMH	GISWNSGSIGYADSVK	VGCGGGYCDY	nd	0 of 3
GFGFDDYAMH	GISWNSGSIGFADSVK	VGRGQGYFDY	nd	0 of 3
CFSFDDYAMH	GISWNSGSIGYADSVK	WGRGGGYFDY	nd	0 of 3

From the AlphaSeq antibody data of Engelhart et al. 2022 (doi:10.1038/s41597-022-01779-4), copy in the FLAb collection.